# Patent US8133913B2, “Substituted indeno [1,2-b]indole derivatives as novel inhibitors of protein kinase CK2 and their use as tumor therapeutic agents, cytostatics and diagnostic aids” (Heinrich-Heine Universitat Dusseldof, priority 2006, dated 2012)
# Key:
# Assay in all cases: Proliferation of tumor cell lines (Bracht et al.)
# Type in all cases: cell-based
# LCLC = details: read-out: IC50 (μM) Mean, inhibition of cell proliferation
# Method: (§1) The IC50 values of the cell proliferation was determined as described by Bracht et al. (28).
# MCF-7 = details: Homo sapiens, MCF7, read-out: IC50 (μM) Mean, inhibition of cell proliferation
# Method: as §1
# A427 = details: Homo sapiens, A-427, read-out: IC50 (μM) Mean, inhibition of cell proliferation
# Method: as §1
# DAN-G = details: read-out: IC50 (μM) Mean, inhibition of cell proliferation
# Method: as §1
# RT-4 = details: Homo sapiens, read-out: IC50 (μM) Mean, inhibition of cell proliferation
# Method: as §1
# 5637 = details: read-out: IC50 (μM) Mean, inhibition of cell proliferation
# Method: as §1, §1
# SISO = details: read-out: IC50 (μM) Mean, inhibition of cell proliferation
# Method: as §1, §1
# KYSE-70 = details: Homo sapiens, read-out: IC50 (μM) Mean, inhibition of cell proliferation
# Method: as §1, §1
smiles,measurement,setting,value
"CC(C)n1c2c(=O)ccc(=O)c2c2c(=O)c3ccccc3c21 [Compound 6b, 5-Isopropyl-5H-indeno[1,2-b]indole-6,9,10-trione]",IC50,LCLC,1.47 µM
same,IC50,MCF-7,1.32 µM
same,IC50,A427,1.4 µM
same,IC50,DAN-G,> 10 µM
same,IC50,RT-4,> 10 µM
same,IC50,5637,1.67 µM
same,IC50,SISO,1.54 µM
same,IC50,KYSE-70,1.54 µM
